Test system: MC3T3 cells
Assay: Bone formation study, alkaline phosphatase (ALP) assay
Type: cell-based, murine
Conditions: 30 ng/ml; 14 days
Excerpt: The many and varied osteoblast culture systems that have been developed include cultures containing osteoblast or osteoblast-like cells from different species, bones of different ages, and a variety of anatomical sites and pathological states. Systems have also been developed for specific cell populations, such as osteoprogenitor cells and osteocytes. Several recent articles have also discussed various osteoblast cell culture models and provide some critical commentaries about their use (Marie, 1994; Rodan et al. 1994; Gundle & Beresford, 1995, Parfitt, 1995; Roby, 1995). In the present invention MC3T3 cell line was used. These cells are murine osteogenic mesenchymal precursor cells, which can be differentiated into osteoblasts by ascorbic acid and beta-glycerol phosphate.
MC3T3 cell lines were used for the bone formation studies. These cells are murine osteogenic mesenchymal precursor cells, which can be differentiated into osteoclasts by ascorbic acid and beta-glycerol phosphate.
The osteoblasts (MC3T3 cells) were seeded at a density of 75000 cells per well in 24 plates. The cells were culture for one day before the plant extracts were added. […]
At the end of the culture period, osteoblast bone formation was evaluated by alkaline phosphatase assay (ALP assay) FIG. 7 and the proliferation by Alamar Blue assay (FIG. 8)

B1: BMP-2: bone morphogenic protein-2, positive control that induces the differentiation of the osteoblasts (protein, UniProt P12643 283-396, looked up)
Bone morphogenetic protein 2: QAKHKQRKRLKSSCKRHPLYVDFSDVGWNDWIVAPPGYHAFYCHGECPFPLADHLNSTNHAIVQTLVNSVNSKIPKACCVPTELSAISMLYLDENEKVVLKNYQDMVVEGCGCR
ALP activity compared to the negative control (without AA and bG): induced

Reference: patent US20090317501A1, “Pinus Pinea Plant Extracts For Treating Osteoporosis and the Extraction Process Thereof” (priority 2006, published 2009)
